Apparent affinities of Ab-14 variants for a coronavirus HR2 peptide

Data: MIT Lincoln Laboratory AlphaSeq set, Engelhart et al. 2022, doi:10.1038/s41597-022-01779-4, as distributed in FLAb.

The target is the same throughout: PDVDLGDISGINAS, from the HR2 region of SARS-CoV-2 spike.

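The parent was found by panning a naive human phage display library on the peptide. AAYL49 was designed without a model: most single CDR substitutions and a random sample of double and triple ones. The assay is AlphaSeq: two haploid yeast populations carry antibody and antigen on their surface. Mating (16 h, 30 °C) was followed by selection of diploids and sequencing of their barcodes. Each replicate has its own calibration line, from reference interactions of the BCL2 family. The assay was run in three technical replicates.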

Each scFv is VH, three GGGGS repeats, VL, as in the parent Ab-14, and differs from it in the CDRs of the heavy chain only.
VH: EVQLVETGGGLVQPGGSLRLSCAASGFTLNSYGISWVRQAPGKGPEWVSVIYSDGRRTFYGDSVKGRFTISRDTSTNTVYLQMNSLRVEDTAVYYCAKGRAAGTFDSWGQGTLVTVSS
VL: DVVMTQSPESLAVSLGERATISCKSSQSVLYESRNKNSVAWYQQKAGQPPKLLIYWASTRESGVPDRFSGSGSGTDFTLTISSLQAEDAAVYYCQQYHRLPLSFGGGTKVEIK

Positions count from residue 1 of the parent VH; N30A puts A in place of N. Scale: log10 of Kd in nM, estimated from mating counts; low values are strong binders. Averages over replicates are reported, and they cover detected replicates only. Where no diploid with the target was found in that replicate, the entry reads "nd": below detection, most likely a poor binder, though not proof of it. As a blank, each scFv also met three strains without target: over library AAYL49, 15% of these pairings were detected, typically at 4.06 and seldom below 2.83. Also given: how often the same scFv was detected with the empty control strains, with their mean in brackets. Parent in this assay: reference entry 0.65, copy in this library 4.11 (one replicate of three).

changes	replicates, log10 nM	log10 Kd (nM), mean	control signals
N30A/G33Y/V64D	nd nd nd	nd	0 of 9
F27C/I51D/S107A	5.04 nd nd	5.04	6 of 9 (4.05)
N30E/I34S/S53C	nd nd 3.20	3.20	1 of 9 (3.47)
G55R/Y60S/D62C	nd nd nd	nd	2 of 9 (3.46)
G26E/F27Y/Y60G	3.93 4.35 4.63	4.30	3 of 9 (3.85)
K65G/T104C/S107F	nd nd nd	nd	0 of 9
T58W/F59P/S107H	nd nd nd	nd	0 of 9
G26I/S31F/A102N	nd nd 4.56	4.56	0 of 9
I34T/T58A/S63L	nd 4.32 nd	4.32	3 of 9 (4.60)
S31L/D54S/T58R	nd nd nd	nd	1 of 9 (3.17)
S31V	1.72 1.74 1.73	1.73	0 of 9
G26M/D54N/G99D	2.97 3.38 nd	3.17	2 of 9 (3.26)
D62R/K65R/D106Y	3.07 2.91 2.83	2.93	2 of 9 (3.48)
D54A/G55Q/V64K	4.12 3.71 5.33	4.39	3 of 9 (4.44)
V50R/I51T/R57V	3.72 nd nd	3.72	0 of 9
V50S/G55T/R57S	4.62 3.37 nd	4.00	5 of 9 (4.36)
Y32F/G55K/G99F	5.70 3.50 nd	4.60	8 of 9 (4.26)
V50F/R57M/A102N	nd nd nd	nd	0 of 9
D54Y/R100E/F105S	nd 2.31 nd	2.31	2 of 9 (3.85)
S31N/F59D/T104W	nd 2.42 nd	2.42	1 of 9 (2.85)
I51F/G99W	4.13 nd nd	4.13	2 of 9 (3.28)
I51W/T58Q/G61P	nd 3.20 nd	3.20	2 of 9 (5.22)
Y32N/A102V/D106N	nd 4.76 nd	4.76	1 of 9 (3.05)
Y52H/D106Y	nd 2.71 nd	2.71	0 of 9
I34E/G55A/V64F	nd 3.29 nd	3.29	0 of 9
G55N/F59A/Y60C	nd nd nd	nd	1 of 9 (3.42)
L29E/S53F/R56E	nd 4.37 nd	4.37	1 of 9 (4.15)
N30E/G33E/Y60Q	4.13 4.07 nd	4.10	5 of 9 (4.27)
R100N/A102E/T104M	nd nd nd	nd	1 of 9 (4.53)
F27S/Y60D/A101C	nd nd nd	nd	0 of 9
S53G/D54R/F59N	4.64 5.06 nd	4.85	3 of 9 (3.39)
G26W/Y32G	nd nd nd	nd	2 of 9 (4.42)
G26Y/L29T/F59T	nd nd nd	nd	0 of 9
Y52C/Y60K	nd nd nd	nd	3 of 9 (3.85)
G26D/V50A/F105L	nd nd nd	nd	1 of 9 (5.13)
T58K/D62L/A101P	nd nd 5.76	5.76	2 of 9 (3.87)
G61C/V64S/F105M	nd nd nd	nd	0 of 9
Y60I/S63M	nd 4.13 3.72	3.93	2 of 9 (4.12)
Y60W	nd nd nd	nd	0 of 9
F27L/T58R/F105Q	3.30 3.29 3.77	3.45	4 of 9 (4.20)
S53D/G55H/G99W	nd nd nd	nd	0 of 9